For 1 substance, Km results are on record in PMC8878264.

The data set relates to Nc1ncnc2c1ncn2[C@@H]1O[C@H](COP(=O)(O)OP(=O)(O)OP(=O)(O)O)[C@@H](O)[C@H]1O. The experiment in a line: purified protein. The following applies: 50 mM Tris-HCl pH 9.0, 120 mM NaCl, 5 mM KCl, 50 mM glucose, 2 mM CaCl2, 0-3.0 mM ATP, products AMP and PPi.

In general, Km refers to the concentration of substrate that gives half-maximal velocity. In the case of “rSmNPP5 (recombinant SmNPP5) (Schistosoma mansoni)”, the Km is given as 217 ± 26 µM.
